This is an account of results in ChEMBL document CHEMBL3608278 (J Med Chem, 2015).

Sequences of proteins named here, by UniProt entry; tags and fusion partners are left off.
UniProt P22001, whole entry: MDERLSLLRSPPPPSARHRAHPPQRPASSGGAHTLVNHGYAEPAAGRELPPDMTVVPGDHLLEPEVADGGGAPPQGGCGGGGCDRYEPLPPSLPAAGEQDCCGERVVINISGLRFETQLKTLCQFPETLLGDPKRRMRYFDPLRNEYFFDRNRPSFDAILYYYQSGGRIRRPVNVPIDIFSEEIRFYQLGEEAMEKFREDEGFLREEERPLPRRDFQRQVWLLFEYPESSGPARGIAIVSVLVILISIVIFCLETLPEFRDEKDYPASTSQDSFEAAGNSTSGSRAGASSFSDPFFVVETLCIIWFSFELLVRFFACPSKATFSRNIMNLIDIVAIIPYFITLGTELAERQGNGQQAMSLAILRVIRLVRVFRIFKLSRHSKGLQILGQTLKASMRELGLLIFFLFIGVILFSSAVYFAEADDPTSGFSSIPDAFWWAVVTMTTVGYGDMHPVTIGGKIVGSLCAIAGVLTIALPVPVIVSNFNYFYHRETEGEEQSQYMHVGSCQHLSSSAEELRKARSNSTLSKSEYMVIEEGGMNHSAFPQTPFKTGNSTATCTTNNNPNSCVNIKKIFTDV

Series [1] has as its target T1, Potassium voltage-gated channel subfamily A member 3 (Homo sapiens, UniProt P22001). Format: cell-based, CHO-K1.
In series [2] the target is T1, Potassium voltage-gated channel subfamily A member 3. Briefly: cell-based. More on the design: species or system Blood.
For series [3] the target is unchanged. More on the design: species or system Blood.
Series [4] in a line: Half life in rat. The settings on record: in vivo. The format is ADME, organism-based.

Usually IC50 stands for the concentration needed to halve the response being measured. Lower therefore signals greater potency in that assay. On to `CC[C@H](C)[C@@H]1NC(=O)[C@@H](NC(=O)[C@H](CO)NC(=O)[C@@H](N)CCCNC(=N)N)CSSC[C@@H](C(=O)O)NC(=O)[C@H]([C@@H](C)O)NC(=O)CNC(=O)[C@@H]2CSSC[C@@H]3NC(=O)[C@H](CCC(N)=O)NC(=O)[C@H](Cc4ccccc4)NC(=O)[C@H](C)NC(=O)[C@H]([C@@H](C)O)NC(=O)[C@H](CSSC[C@H](NC(=O)[C@H](Cc4ccccc4)NC(=O)[C@H](Cc4cccc5ccccc45)NC(=O)[C@H](CC(C)C)NC(=O)[C@H](CCCNC(=N)N)NC(=O)[C@H](Cc4ccc(O)cc4)NC(=O)[C@H](CCCCN)NC(=O)[C@H](CCSC)NC(=O)[C@H](CO)NC(=O)[C@H](Cc4cnc[nH]4)NC(=O)[C@H](CCCCN)NC3=O)C(=O)N[C@@H](CCCNC(=N)N)C(=O)N[C@@H](CCCCN)C(=O)N[C@@H]([C@@H](C)O)C(=O)N2)NC(=O)[C@H](CCCNC(=N)N)NC(=O)[C@H](CO)NC(=O)[C@H](CCCCN)NC(=O)[C@@H]2CCCN2C(=O)[C@H]([C@@H](C)CC)NC(=O)[C@H]([C@@H](C)O)NC(=O)[C@H](CC(=O)O)NC1=O`, for which the IC50 worked out at 0.207 nM in series [1], 0.357 nM in series [2] and 0.573 nM in series [3].

Usually half-life stands for the time in which the quantity being followed falls by half. Higher therefore signals slow decline. Consider `CC[C@H](C)[C@@H]1NC(=O)[C@@H](NC(=O)[C@H](CO)NC(=O)[C@H](CCCNC(=N)N)NC(=O)COCCOCCNC(=O)[C@@H](N)Cc2ccc(OP(=O)(O)O)cc2)CSSC[C@@H](C(=O)O)NC(=O)[C@H]([C@@H](C)O)NC(=O)CNC(=O)[C@@H]2CSSC[C@@H]3NC(=O)[C@H](CCC(N)=O)NC(=O)[C@H](Cc4ccccc4)NC(=O)[C@H](C)NC(=O)[C@H]([C@@H](C)O)NC(=O)[C@H](CSSC[C@H](NC(=O)[C@H](Cc4ccccc4)NC(=O)[C@H](CO)NC(=O)[C@H](CC(C)C)NC(=O)[C@H](CCCNC(=N)N)NC(=O)[C@H](Cc4ccc(O)cc4)NC(=O)[C@H](CCCCN)NC(=O)[C@H](CCSC)NC(=O)[C@H](CO)NC(=O)[C@H](Cc4cnc[nH]4)NC(=O)[C@H](CCCCN)NC3=O)C(=O)N[C@@H](CCCNC(=N)N)C(=O)N[C@@H](CCCCN)C(=O)N[C@@H]([C@@H](C)O)C(=O)N2)NC(=O)[C@H](CCCNC(=N)N)NC(=O)[C@H](CO)NC(=O)[C@H](CCCCN)NC(=O)[C@@H]2CCCN2C(=O)[C@H]([C@@H](C)CC)NC(=O)[C@H]([C@@H](C)O)NC(=O)[C@H](CC(=O)O)NC1=O`, for which, in series [4], the half-life is less than 60 min.
